Permeability data for macrocyclic peptides

Values of Townsend et al. 2020, doi:10.26434/chemrxiv.13335941.v1, as listed in CycPeptMPDB.

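The data file gives no further conditions (lipid, pH, time, direction or concentration), and values from different papers need not be comparable. The list need not hold all peptides of the study. Peptides that the database sets to -10, its floor, are left out.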

PAMPA is the parallel artificial membrane permeability assay, which has no cells and reads passive diffusion.
Values are log10 P with P in cm/s, so -5 is more permeable than -7.

| PAMPA (log10 cm/s) | structure (SMILES) |
|---|---|
| -5.77 | CC(C)C[C@@H]1NC(=O)C[C@H](Cc2ccccc2)NC(=O)[C@H](Cc2ccccc2)NC(=O)[C@H](CC(C)C)NC(=O)[C@H]2CCCN2C(=O)[C@@H](CC(C)C)NC1=O |
| -5.71 | CC(C)C[C@@H]1NC(=O)[C@H](CC(C)C)N(C)C(=O)[C@@H](C)N(C)C(=O)[C@H]2CCCN2C(=O)[C@H](Cc2ccccc2)NC(=O)CN(Cc2ccccc2)C(=O)[C@@H]2CCCN2C1=O |
| -5.77 | CC(C)C[C@H]1C(=O)N(C)[C@@H](CC(C)C)C(=O)N2CCC[C@@H]2C(=O)N(C)[C@@H](CC(C)C)C(=O)N[C@@H](Cc2ccccc2)C(=O)N2CCC[C@@H]2C(=O)N(C)[C@H](C)C(=O)N1C |
| -5.50 | CC(C)C[C@@H]1NC(=O)[C@H](CC(C)C)N(C)C(=O)[C@@H](C)NC(=O)[C@H](Cc2ccccc2)NC(=O)CN(Cc2ccccc2)C(=O)[C@@H]2CCCN2C1=O |
| -5.95 | CC(C)C[C@@H]1NC(=O)[C@H](C)NC(=O)[C@H](Cc2ccccc2)NC(=O)CN(Cc2ccccc2)C(=O)[C@@H]2CCCN2C(=O)CN(Cc2ccccc2)C1=O |
| -5.95 | CC(C)C[C@@H]1NC(=O)[C@@H](C)N(C)C(=O)[C@@H]2CCCN2C(=O)[C@H](Cc2ccccc2)NC(=O)CN(Cc2ccccc2)C(=O)[C@H]2CCCN2C(=O)[C@H](CC(C)C)NC1=O |
| -5.77 | CC(C)C[C@@H]1NC(=O)[C@H](C)N(C)C(=O)[C@H]2CCCN2C(=O)[C@H](Cc2ccccc2)NC(=O)CN(Cc2ccccc2)C(=O)[C@@H]2CCCN2C(=O)[C@H](CC(C)C)NC1=O |
| -5.31 | CCCN1CC(=O)N(C)[C@@H](CC(C)C)C(=O)N(Cc2ccccc2)CC(=O)N2CCC[C@@H]2C(=O)N(C)[C@H](CC(C)C)C(=O)N[C@@H](Cc2ccccc2)C(=O)N2CCC[C@@H]2C1=O |
| -5.85 | CC(C)C[C@@H]1NC(=O)[C@H](C)NC(=O)[C@H](Cc2ccccc2)NC(=O)CN(Cc2ccccc2)C(=O)[C@@H]2CCCN2C(=O)[C@H](CC(C)C)NC1=O |
| -5.27 | CC(C)C[C@H]1C(=O)N2CCC[C@@H]2C(=O)N(C)[C@@H](CC(C)C)C(=O)N[C@@H](Cc2ccccc2)C(=O)N[C@H](C)C(=O)N(Cc2ccccc2)CC(=O)N1C |
| -6.26 | CC(C)C[C@H]1NC(=O)[C@H]2CCCN2C(=O)C[C@H](Cc2ccccc2)NC(=O)[C@H](CC(C)C)N(C)C(=O)[C@@H](C)N(C)C(=O)[C@@H]2CCCN2C(=O)[C@H](Cc2ccccc2)NC1=O |
| -6.21 | CC(C)C[C@@H]1C(=O)N(C)[C@H](CC(C)C)C(=O)N2CCC[C@H]2C(=O)N(C)[C@H](CC(C)C)C(=O)N[C@@H](Cc2ccccc2)C(=O)N2CCC[C@@H]2C(=O)N(C)[C@H](C)C(=O)N1C |
| -7.21 | CC(C)C[C@@H]1C(=O)N(Cc2ccccc2)CC(=O)N2CCC[C@H]2C(=O)N[C@H](CC(C)C)C(=O)N[C@@H](Cc2ccccc2)C(=O)N2CCC[C@H]2C(=O)N(C)[C@H](C)C(=O)N1C |

Repeated from above, the 2 entries with the highest PAMPA:

| structure (SMILES) | PAMPA (log10 cm/s) |
|---|---|
| CC(C)C[C@H]1C(=O)N2CCC[C@@H]2C(=O)N(C)[C@@H](CC(C)C)C(=O)N[C@@H](Cc2ccccc2)C(=O)N[C@H](C)C(=O)N(Cc2ccccc2)CC(=O)N1C | -5.27 |
| CCCN1CC(=O)N(C)[C@@H](CC(C)C)C(=O)N(Cc2ccccc2)CC(=O)N2CCC[C@@H]2C(=O)N(C)[C@H](CC(C)C)C(=O)N[C@@H](Cc2ccccc2)C(=O)N2CCC[C@@H]2C1=O | -5.31 |